In general, TD50 refers to the 50% point of the dose-response relation for the toxic effect studied.

The source of these data is PubChem BioAssay AID1745844 (Carcinogenic Potency Database (CPDB), 2022).

In this data set the test system is rodent lifetime carcinogenesis bioassay, tumor incidence TD50. Briefly: chronic cancer bioassays in animals – CPDB, compiled studies (AID 1745844). The following applies: rat, strain BR 46, males, i.v., site: any site (literature study), dosed 52 weeks, study length 104 weeks.

The structures appear in SMILES notation.

Turning to `CN(CCCl)CCCl`, the TD50 is, setting by setting: (lesion: benign tumor) 0.0342 mg/kg/day; (lesion: malignant tumor) 0.0228 mg/kg/day; (lesion: several types, types named in the paper) 0.0114 mg/kg/day.
